Our source for the solubility in ethanol values is patent publication US9096629B2, “Process of forming iron hydroxypyrone compounds” (Iron Therapeutics Holdings AG, priority 2011, dated 2015).

ferric hydroxide [Fe(OH)3]: the solubility in ethanol entry is recorded as “insoluble”.
